ChEMBL document CHEMBL1132110, “Design and fast synthesis of C-terminal duplicated potent C(2)-symmetric P1/P1'-modified HIV-1 protease inhibitors” (J Med Chem, 1999)

Molecular target: Human immunodeficiency virus type 1 protease (Human immunodeficiency virus 1, UniProt Q72874)
Assay: Inhibitory activity against HIV-1 protease expressed in Escherichia coli
In short: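 HIV-1 protease cloned and heterologously expressed in E. coli, then purified; Ki determined by fluorometric assay, standard error 20%.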

`CNC(=O)[C@@H](NC(=O)[C@H](OCc1ccc(-c2ccsc2)cc1)[C@H](O)[C@@H](O)[C@@H](OCc1ccc(-c2ccsc2)cc1)C(=O)N[C@H](C(=O)NC)C(C)C)C(C)C` was tested, and the Ki was 1.2 nM.
